Type in all cases: cell-based
The target in assay [1] is T1, rat B1 (Rattus norvegicus, UniProt P97583).
T1 construct: the full-length receptor-coding cDNA clones were obtained by PCR performed on rat or mouse brain cDNAs; expressed in transfected cells; host or cells: CHO-K1
T1 sequence (P97583 1-337): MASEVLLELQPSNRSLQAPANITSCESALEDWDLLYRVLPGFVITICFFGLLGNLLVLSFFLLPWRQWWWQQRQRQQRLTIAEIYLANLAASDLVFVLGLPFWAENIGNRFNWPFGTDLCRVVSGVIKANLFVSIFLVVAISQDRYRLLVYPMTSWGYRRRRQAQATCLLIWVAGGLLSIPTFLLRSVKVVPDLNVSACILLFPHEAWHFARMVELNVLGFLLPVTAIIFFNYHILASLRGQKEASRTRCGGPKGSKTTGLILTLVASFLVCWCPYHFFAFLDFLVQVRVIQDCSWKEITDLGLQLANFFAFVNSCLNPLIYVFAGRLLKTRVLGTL
As to the kind of experiment: Calcium flux assay, CHO-K1 cell line expressing rat B1. Here is the method: (§1) The potency to inhibit the Bradykinin B1 receptors was determined for the compounds of this invention in a cell-based fluorescent calcium-mobilization assay. The assay measures the ability of test compounds to inhibit Bradykinin B1 receptor agonist-induced increase of intracellular free Ca^2+ in cell lines expressing B1.
(§2) Specifically, calcium indicator-loaded cells are pre-incubated in the absence or presence of different concentrations of test compounds followed by the stimulation with a selective B1 receptor agonist peptide. The change of the intracellular Ca^2+ concentration is monitored with a specifically designed fluorescent plate reader (FlexStation, Molecular Devices).
(§3) CHO-K1 cell line expressing human B1 was purchased from Euroscreen (Gosselies, Belgium, with reference name hBl-D1). CHO-K1 cell lines expressing rat B1 or mouse B1 were established in the following way: the full-length receptor-coding cDNA clones were obtained by PCR performed on rat or mouse brain cDNAs. The respective cDNAs were cloned into an expression vector under the control of a CMV promotor. The resultant plasmids were introduced into CHO-K1 cells with liposome technology (FuGENE; Roche Diagnostics, Basel), according to the standard protocols described by the manufacturer. Cell lines expressing a Bradykinin receptor were selected in the culture medium containing 400 μg/ml G418 (Sigma). […]

The target of assay [2] is T2, human B1 (Homo sapiens, UniProt P46663).
T2 construct: host or cells: CHO-K1
T2 sequence (P46663 1-353): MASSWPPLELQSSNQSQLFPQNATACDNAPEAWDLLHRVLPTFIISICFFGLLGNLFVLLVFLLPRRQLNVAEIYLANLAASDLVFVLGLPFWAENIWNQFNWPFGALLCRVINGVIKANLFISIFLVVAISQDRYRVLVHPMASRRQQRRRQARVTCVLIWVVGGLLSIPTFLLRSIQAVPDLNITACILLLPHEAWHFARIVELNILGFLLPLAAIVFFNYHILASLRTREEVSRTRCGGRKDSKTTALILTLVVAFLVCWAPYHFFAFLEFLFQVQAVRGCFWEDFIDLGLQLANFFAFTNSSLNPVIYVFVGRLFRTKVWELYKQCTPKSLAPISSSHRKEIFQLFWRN
As to the kind of experiment: Calcium flux assay for Bradykinin B1 antagonist, CHO-K1 cell line expressing human B1. Here is the method:
Calcium Flux Assay for Bradykinin B1 Antagonist
as §1, §2
CHO-K1 cell line expressing human B1 was purchased from Euroscreen (Gosselies, Belgium, with reference name hBl-D1). CHO-K1 cell lines expressing rat B1 or mouse B1 were established in the following way: the full-length receptor-coding cDNA clones were obtained by PCR performed on rat or mouse brain cDNAs. The respective cDNAs were cloned into an expression vector under the control of a CMV promotor. The resultant plasmids were introduced into CHO-K1 cells with liposome technology (FuGENE; Roche Diagnostics, Basel), according to the standard protocols described by the manufacturer. […]

Assay [3] addresses T3, mouse B1 (Mus musculus, UniProt Q61125).
T3 construct: the full-length receptor-coding cDNA clones were obtained by PCR performed on rat or mouse brain cDNAs; expressed in transfected cells; host or cells: CHO-K1
T3 sequence (Q61125 1-334): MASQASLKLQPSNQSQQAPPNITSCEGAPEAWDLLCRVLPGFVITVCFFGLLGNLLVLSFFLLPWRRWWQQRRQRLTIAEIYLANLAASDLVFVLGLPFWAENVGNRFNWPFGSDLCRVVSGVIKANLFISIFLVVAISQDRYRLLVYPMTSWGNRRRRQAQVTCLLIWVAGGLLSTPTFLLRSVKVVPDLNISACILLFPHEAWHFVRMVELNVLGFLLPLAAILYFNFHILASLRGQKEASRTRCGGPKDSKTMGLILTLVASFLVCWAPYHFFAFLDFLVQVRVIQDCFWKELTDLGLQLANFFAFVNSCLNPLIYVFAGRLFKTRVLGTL
As to the kind of experiment: Calcium flux assay, CHO-K1 cell line expressing mouse B1. Here is the method: as §1, §2, §3

Where [4] appears, read: read-out: typical IC50 of B1 antagonist.
Where [5] appears, read: read-out: typical EC50 of B1 agonist.

This is an account of results in patent US8623859B2, “Bradykinin B1 antagonists” (Evotec AG, priority 2008, dated 2014).

As to Lys-(Des-Arg-Leu)-Bradykinin, the IC50 was determined as 12 nM in assay [1] (setting [4]), 0.5 nM in assay [2] (setting [4]) and 15 nM in assay [3] (setting [4]).

As for Lys-(Des-Arg)-Bradykinin, the EC50 in assay [1] (setting [5]) was 250 nM; in assay [2] (setting [5]), 2 nM; in assay [3] (setting [5]), 10 nM.
